Most compounds without a hit are left out; they make up all but 16% or so of the library.
uPA generation – blocks generation of uPA at the cell surface | cell surface uPA generation assay, qHTS | Potency, µM (titrated, usually from 38.3 µM), actives largely listed as inhibitors | 330,000 tested, 0.31% active | AID 540303; active means well fitted inhibition curve with a large enough effect; inconclusive means small, poorly fitted or top-dose-only effect; inactive means no such curve, though single readings can be large or run the other way; tested in mouse RAW 264.7 cells; further: nearly all actives have a fitted effect of over 55% in size
TDP1 block – TDP1 (human) enzyme inhibition | recombinant TDP1, AlphaScreen DNA substrate cleavage | Potency, µM (highest dose often 130 µM), usual class: inhibitors | 350,000 tested, 0.28% active | AID 485290; further: nearly all actives have a fitted effect of over 40% in size
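Here, a 5' biotin and 3' phosphotyrosine-FITC DNA oligonucleotide reports Tdp1 activity: intact substrate bridges AlphaScreen beads, while cleavage leaves a 3' phosphate and drops signal. All incubations at room temperature.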
miR-21 reporter – raises the signal of a miR-21 reporter | HeLa miR-21 FLuc reporter, luciferase, 48 h | Potency, µM (highest dose often 38.3 µM) | 340,000 tested, under 10 active | AID 2288; active = well fitted rising curve with a large enough effect; inconclusive = small, poorly fitted or top-dose-only effect; inactive = no such curve, though single readings can be large or run the other way;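 note: miR-21 action dims this reporter so a rising signal means less miR-21 action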
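Using DMEM plus 10% FBS, HeLa miR-21-FLuc cells are incubated with test compounds (final up to about 40uM) for 48 hours; firefly luciferase signal is then imaged following reagent-mediated lysis.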
TDP1 cell noCPT – qHTS for Inhibitors of human tyrosyl-DNA phosphodiesterase 1 (TDP1): qHTS in cells in absence of CPT | AID 686978, 2013 | Potency, µM (titrated, usually from 46.2 µM), usual class: inhibitors | 420,000 tested, 15% active | DT40 Tdp1-/- hTDP1 cells, no CPT, ATP luminescence, 48 h; further: nearly all actives have a fitted effect of over 55% in size
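Chicken DT40 Tdp1-/- cells stably complemented with human TDP1 were seeded at 400 cells/well with DMSO in place of 20 nM camptothecin. After compound pinning, cells grew at least 48 hr at 37 °C; viability read by CellTiter-Glo luminescence.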
TDP1 cell CPT – growth inhibition of DT40 Tdp1-/-;hTDP1 cells with camptothecin (screen for TDP1 inhibitors). chicken DT40 Tdp1-/-;hTDP1 cells + 20 nM CPT, ATP luminescence, 48 h. 420,000 tested, 12% active. Potency, µM (doses to about 46.2 µM), actives largely listed as inhibitors; further: nearly all actives have a fitted effect of over 55% in size
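Chicken DT40 Tdp1-/- cells complemented with human TDP1, 400 cells/well, exposed to compounds plus 20 nM camptothecin for at least 48 h at 37 C; viability read as ATP content by CellTiter-Glo luminescence.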
A number is an active result; – = inactive; ? = inconclusive; · = no result. Unless noted, the call rests on the fitted dose curve; in most records, active means well fitted curve in the direction sought with a large enough effect; inconclusive means small, poorly fitted or top-dose-only effect, or another doubt; inactive means no such curve, though single readings can be large; an effect the other way counts as inactive or inconclusive.

SMILES | uPA generation | TDP1 block | miR-21 reporter | TDP1 cell noCPT | TDP1 cell CPT
CN(c1ccc(C(=O)N2CCOCC2)cc1[N+](=O)[O-])C1CCCCC1 | – | – | – | ? | ?
CC(C)C[C@@H](NC(=O)OCC1c2ccccc2-c2ccccc21)C(=O)O | · | – | · | – | –
O=C1Nc2cc(Cl)ccc2Oc2cc(Oc3ccccc3)ccc21 | · | – | – | 21µM | ?
O=C1Nc2ccccc2Oc2cc(Oc3ccc(Cl)cc3)ccc21 | · | – | – | ? | –
Cc1ccc(S(=O)(=O)c2cn(Cc3ccccc3F)c3cc4c(cc3c2=O)OCO4)cc1 | · | – | – | ? | 5.8µM
Cc1ccc(S(=O)(=O)c2cn(Cc3ccccc3Cl)c3ccc(F)cc3c2=O)cc1 | · | – | – | 16µM | 18µM
CC(CNC(=O)c1cc(COc2ccc3ncccc3c2)on1)c1ccccc1 (stereo unspecified) | ? | – | – | 12µM | 16µM
Cc1cccc(C)c1OCc1cc(C(=O)NC2CCC2)no1 | – | – | – | – | –
COc1cc(Cl)ccc1OCc1cc(C(=O)NCC(C)c2ccccc2)no1 (stereo unspecified) | – | – | – | – | –
COc1cccc(OCc2cc(C(=O)N3CCC(C(O)C(C)C)CC3)no2)c1 (stereo unspecified) | – | – | – | ? | ?
O=C(c1cc(COc2ccc3ncccc3c2)on1)N1CCC(O)CC1 | – | – | – | 8.2µM | 16µM
COCC1CCCN(C(=O)c2cc(COc3cccc4cccnc34)on2)C1 (stereo unspecified) | – | – | – | – | –
O=C(c1cc(COc2ccc3ncccc3c2)on1)N1CCCC(O)C1 (stereo unspecified) | – | – | – | 21µM | ?
O=C(NC1CCCCCCC1)c1cc(COc2ccc3ncccc3c2)on1 | – | – | – | 4.6µM | 3.7µM
CCc1ccc(C(=O)C(C)OC(=O)c2nn(C)c(=O)c3ccccc23)cc1 (stereo unspecified) | – | · | · | – | –
S=c1[nH]c2cc3c(cc2[nH]1)OCCO3 | – | · | – | – | –
O=C(CSc1ccc(-c2cccnc2)nn1)Nc1ccc(Br)cc1 | – | – | – | ? | ?
OCC1OC2C(NC(=S)N2c2ccccc2)C(O)C1O (stereo unspecified) | – | · | · | – | –
CCC(O)C1CCN(C(=O)c2cc(COc3ccc4ncccc4c3)on2)CC1 (stereo unspecified) | – | – | – | 3.7µM | 4.1µM
O=C(c1cc(COc2ccc3ncccc3c2)on1)N1CCC[C@H]1CO | ? | – | – | 8.2µM | 6.5µM
Cc1ccc(-c2nn(-c3ccccc3)cc2CO)o1 | – | – | – | – | –
CC1CCCCN1CC(=O)Nc1ccc2c(c1)OCO2 (stereo unspecified) | – | – | · | – | –
CCCNC(=O)C(Cc1ccc(OC)cc1)NC(=O)c1ccc(Cl)cc1 (stereo unspecified) | – | – | · | ? | –
COc1cc(C(=O)Nc2sc3c(c2C(=O)NCc2ccco2)CCCC3)cc(OC)c1OC | – | – | – | 21µM | ?
CCOC(=O)N1CCc2c(sc(NCc3sccc3C)c2C(=O)Nc2cc(Cl)ccc2OC)C1 | · | – | – | ? | –
SMILES | uPA generation | TDP1 block | miR-21 reporter | TDP1 cell noCPT | TDP1 cell CPT
CCOC(=O)N1CCc2c(sc(NCc3ccc(N(C)C)cc3)c2C(=O)Nc2ccccc2OCC)C1 | · | – | – | 8.2µM | ?
O=C(Nc1sc2c(c1C(=O)NCc1cccnc1)CCCC2)c1ccco1 | · | – | – | – | –
CCOC(=O)N1CCc2c(sc(NCc3ccc(OCC)cc3)c2C(=O)Nc2ccc(OC)cc2OC)C1 | · | – | ? | ? | ?
COc1ccc(Cl)cc1NC(=O)c1c(NCc2cccnc2)sc2c1CCCC2 | · | – | – | 15µM | 23µM
COc1ccc(Cl)cc1NC(=O)c1c(NCc2ccc(C)o2)sc2c1CCCC2 | · | – | – | 21µM | ?
COc1ccc(CNC(=O)c2cc(=O)c3ccccc3o2)cc1 | – | · | – | – | ?
O=C(Nc1ccccc1C(=O)O)c1ncn[nH]1 | – | – | – | – | –
NC(=O)C1(c2ccccc2)OC1c1ccccc1 (stereo unspecified) | – | – | · | – | –
COc1ccc(S(=O)(=O)N2CCCCCC2)cc1C(=O)Nc1cccc(C)n1 | – | – | – | – | –
CCOc1ccccc1NC(=O)c1c(NCc2ccc(C)o2)sc2c1CCC(C)C2 (stereo unspecified) | · | – | – | – | –
CCOc1ccccc1NC(=O)c1c(NCc2ccc(C)o2)sc2c1CCCCC2 | · | – | – | 2.9µM | 4.6µM
CCCN1CCC(=O)N([C@H](CSc2ccccc2)c2ccccc2)CC1 | ? | · | – | 18µM | 13µM
CCCN1CCC(=O)N([C@H](CSc2ccc(C)cc2)c2ccccc2)CC1 | ? | – | – | 8.2µM | 16µM
O=C(c1cccs1)N1CCCN(c2ncnc3scc(-c4ccccc4)c23)CC1 | – | – | – | ? | ?
COc1ccc(-c2csc3ncnc(N4CCN(C(=O)c5ccco5)CC4)c23)cc1 | – | – | · | ? | 23µM
O=C(c1ccco1)N1CCN(c2ncnc3scc(-c4ccccc4)c23)CC1 | – | – | – | 16µM | 16µM
O=C(c1ccco1)N1CCN(c2ncnc3scc(-c4cccs4)c23)CC1 | · | – | – | 13µM | 18µM

Bioassay records from PubChem BioAssay.
